The values that follow come from paper PMC9340777 (Journal of Medicinal Chemistry, 2022).

Each structure is given as a SMILES string. Values joined by “and” are separate entries in the source; they are usually repeats but may differ in a detail not shown here. Equal values may be shown once.

This data set is described as follows: Aqueous stability of monobasic prodrugs in pH 6.5 PBS (LC–MS). The note with it: pH 6.5 phosphate buffer, 37 °C, average of n = 2.
On to `CC(OC(=O)CCN)OC(=O)N1CCC(OC(=O)C(O)(c2ccccc2)c2ccccc2)CC1.Cl` (stereo not drawn), for which the “PBS T1/2 (h) pH 6.5” value was 7.3 h and 7.31 h.
As to `CC[C@H](N)C(=O)OC(C)OC(=O)N1CCC(OC(=O)C(O)(c2ccccc2)c2ccccc2)CC1.Cl` (stereo partly drawn), the “PBS T1/2 (h) pH 6.5” value is given as 2.93 h.
The value for `CC(OC(=O)[C@H](C)N)OC(=O)N1CCC(OC(=O)C(O)(c2ccccc2)c2ccccc2)CC1.Cl` (stereo partly drawn) was 1.71 h; that for `CC(OC(=O)N1CCC(OC(=O)C(O)(c2ccccc2)c2ccccc2)CC1)OC(=O)C(C)(C)N.Cl` (stereo not drawn) was 3.05 h.
Then `CNCC(=O)OC(C)OC(=O)N1CCC(OC(=O)C(O)(c2ccccc2)c2ccccc2)CC1.Cl` (stereo not drawn), with 0.39 h; and `CC(OC(=O)CCCN)OC(=O)N1CCC(OC(=O)C(O)(c2ccccc2)c2ccccc2)CC1.Cl` (stereo not drawn), with 0.07 h.
